Laboratory results reported in article PMC10104807, “Modulation of tau tubulin kinases (TTBK1 and TTBK2) impacts ciliogenesis” (Scientific Reports, 2023).
“And” between values parts separate entries of the source, which are not always exact repeats. Equal values may be shown once.

Amino acid sequences for entries named in this document (tags omitted). Residues count along the entry.
UniProt Q9Y4K4, whole entry: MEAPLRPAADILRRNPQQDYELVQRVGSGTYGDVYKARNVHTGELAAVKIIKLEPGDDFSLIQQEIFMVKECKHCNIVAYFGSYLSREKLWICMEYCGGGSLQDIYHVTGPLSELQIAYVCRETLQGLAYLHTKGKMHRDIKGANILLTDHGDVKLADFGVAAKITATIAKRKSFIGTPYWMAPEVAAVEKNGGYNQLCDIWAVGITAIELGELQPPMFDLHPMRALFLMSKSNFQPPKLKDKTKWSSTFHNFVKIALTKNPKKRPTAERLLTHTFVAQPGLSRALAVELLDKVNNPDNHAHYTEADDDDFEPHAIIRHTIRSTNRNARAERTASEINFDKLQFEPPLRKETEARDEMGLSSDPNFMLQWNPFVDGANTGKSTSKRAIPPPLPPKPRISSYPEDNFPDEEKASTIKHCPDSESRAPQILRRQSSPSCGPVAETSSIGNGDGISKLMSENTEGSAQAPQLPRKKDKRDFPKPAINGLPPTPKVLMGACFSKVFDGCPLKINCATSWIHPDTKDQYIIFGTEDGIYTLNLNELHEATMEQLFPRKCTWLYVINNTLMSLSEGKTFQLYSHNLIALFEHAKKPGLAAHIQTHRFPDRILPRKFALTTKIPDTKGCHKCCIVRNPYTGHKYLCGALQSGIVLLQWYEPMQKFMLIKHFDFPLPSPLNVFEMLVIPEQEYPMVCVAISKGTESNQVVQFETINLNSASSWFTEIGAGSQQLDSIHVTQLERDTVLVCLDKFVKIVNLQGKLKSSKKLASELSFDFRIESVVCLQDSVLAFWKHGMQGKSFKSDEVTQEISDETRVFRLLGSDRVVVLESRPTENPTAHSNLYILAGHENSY
UniProt Q7L7X3, whole entry: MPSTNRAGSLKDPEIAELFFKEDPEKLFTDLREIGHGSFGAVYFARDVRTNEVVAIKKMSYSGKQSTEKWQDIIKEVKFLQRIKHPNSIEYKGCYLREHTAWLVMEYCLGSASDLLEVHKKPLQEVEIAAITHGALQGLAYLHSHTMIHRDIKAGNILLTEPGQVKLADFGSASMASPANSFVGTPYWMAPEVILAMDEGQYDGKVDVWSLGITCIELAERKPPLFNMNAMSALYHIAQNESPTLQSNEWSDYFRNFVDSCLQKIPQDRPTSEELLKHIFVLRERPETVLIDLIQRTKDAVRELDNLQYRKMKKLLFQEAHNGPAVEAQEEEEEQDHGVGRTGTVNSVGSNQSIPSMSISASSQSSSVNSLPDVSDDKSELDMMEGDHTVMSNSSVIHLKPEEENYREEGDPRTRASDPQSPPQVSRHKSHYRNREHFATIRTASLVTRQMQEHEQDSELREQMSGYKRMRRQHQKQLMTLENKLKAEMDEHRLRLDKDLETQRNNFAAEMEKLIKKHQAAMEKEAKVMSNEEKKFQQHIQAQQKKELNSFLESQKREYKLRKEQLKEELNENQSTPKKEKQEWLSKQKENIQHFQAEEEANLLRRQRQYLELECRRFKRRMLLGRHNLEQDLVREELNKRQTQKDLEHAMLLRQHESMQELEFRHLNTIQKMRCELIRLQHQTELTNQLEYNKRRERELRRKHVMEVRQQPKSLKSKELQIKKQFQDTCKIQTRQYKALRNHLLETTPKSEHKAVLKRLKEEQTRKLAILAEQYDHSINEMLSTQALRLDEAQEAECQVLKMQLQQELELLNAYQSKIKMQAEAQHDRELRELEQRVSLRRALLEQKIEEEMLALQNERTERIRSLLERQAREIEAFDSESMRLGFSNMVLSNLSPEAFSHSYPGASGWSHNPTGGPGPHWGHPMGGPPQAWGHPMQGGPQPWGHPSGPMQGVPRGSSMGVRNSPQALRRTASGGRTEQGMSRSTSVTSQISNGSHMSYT
UniProt Q9UL54, whole entry: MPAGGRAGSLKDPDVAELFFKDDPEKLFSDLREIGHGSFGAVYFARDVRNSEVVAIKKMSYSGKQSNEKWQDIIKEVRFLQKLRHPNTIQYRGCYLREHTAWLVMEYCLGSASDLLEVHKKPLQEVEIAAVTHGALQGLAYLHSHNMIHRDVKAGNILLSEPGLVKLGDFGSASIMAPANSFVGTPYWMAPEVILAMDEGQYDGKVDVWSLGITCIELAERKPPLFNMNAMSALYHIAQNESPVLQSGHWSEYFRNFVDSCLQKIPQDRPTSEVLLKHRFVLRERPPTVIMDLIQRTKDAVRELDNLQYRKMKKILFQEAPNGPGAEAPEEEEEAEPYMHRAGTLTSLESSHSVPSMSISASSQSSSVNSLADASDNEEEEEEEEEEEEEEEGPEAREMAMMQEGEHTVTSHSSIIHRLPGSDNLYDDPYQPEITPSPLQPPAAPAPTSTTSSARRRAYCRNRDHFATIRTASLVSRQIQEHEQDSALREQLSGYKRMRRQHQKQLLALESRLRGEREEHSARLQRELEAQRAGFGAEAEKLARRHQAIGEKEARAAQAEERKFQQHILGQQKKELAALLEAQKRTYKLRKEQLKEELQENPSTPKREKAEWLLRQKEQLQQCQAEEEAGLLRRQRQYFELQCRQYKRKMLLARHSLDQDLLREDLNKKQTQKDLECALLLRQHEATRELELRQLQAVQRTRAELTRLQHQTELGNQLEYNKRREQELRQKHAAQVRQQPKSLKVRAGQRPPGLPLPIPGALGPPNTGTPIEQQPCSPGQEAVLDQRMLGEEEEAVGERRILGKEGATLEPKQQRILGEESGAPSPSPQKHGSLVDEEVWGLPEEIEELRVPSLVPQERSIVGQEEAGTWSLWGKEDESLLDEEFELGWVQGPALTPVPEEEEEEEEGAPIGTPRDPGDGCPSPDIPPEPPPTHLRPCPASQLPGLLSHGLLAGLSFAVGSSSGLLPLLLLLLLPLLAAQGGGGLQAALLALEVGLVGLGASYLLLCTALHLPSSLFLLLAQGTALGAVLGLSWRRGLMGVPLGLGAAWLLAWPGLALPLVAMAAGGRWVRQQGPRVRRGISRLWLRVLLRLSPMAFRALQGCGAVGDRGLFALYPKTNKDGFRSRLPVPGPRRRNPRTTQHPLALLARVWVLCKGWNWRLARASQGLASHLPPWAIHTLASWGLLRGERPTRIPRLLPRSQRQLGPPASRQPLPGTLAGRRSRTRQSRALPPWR
UniProt Q96PN8, whole entry: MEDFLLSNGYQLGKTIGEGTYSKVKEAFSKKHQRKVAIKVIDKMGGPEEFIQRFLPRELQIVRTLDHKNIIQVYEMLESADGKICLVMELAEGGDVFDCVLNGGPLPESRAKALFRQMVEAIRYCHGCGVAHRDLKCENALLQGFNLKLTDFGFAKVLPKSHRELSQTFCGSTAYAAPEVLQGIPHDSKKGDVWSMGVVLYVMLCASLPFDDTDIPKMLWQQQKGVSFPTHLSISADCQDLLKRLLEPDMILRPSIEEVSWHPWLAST
UniProt Q6SA08, whole entry: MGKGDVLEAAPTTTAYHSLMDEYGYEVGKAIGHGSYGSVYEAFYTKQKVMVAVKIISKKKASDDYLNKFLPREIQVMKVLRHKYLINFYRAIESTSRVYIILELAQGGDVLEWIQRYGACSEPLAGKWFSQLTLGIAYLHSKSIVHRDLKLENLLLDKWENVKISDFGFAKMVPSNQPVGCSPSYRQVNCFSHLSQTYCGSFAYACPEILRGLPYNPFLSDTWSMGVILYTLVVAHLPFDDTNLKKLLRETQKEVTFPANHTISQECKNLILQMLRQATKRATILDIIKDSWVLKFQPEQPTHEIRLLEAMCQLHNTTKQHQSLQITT
UniProt Q5TCY1, whole entry: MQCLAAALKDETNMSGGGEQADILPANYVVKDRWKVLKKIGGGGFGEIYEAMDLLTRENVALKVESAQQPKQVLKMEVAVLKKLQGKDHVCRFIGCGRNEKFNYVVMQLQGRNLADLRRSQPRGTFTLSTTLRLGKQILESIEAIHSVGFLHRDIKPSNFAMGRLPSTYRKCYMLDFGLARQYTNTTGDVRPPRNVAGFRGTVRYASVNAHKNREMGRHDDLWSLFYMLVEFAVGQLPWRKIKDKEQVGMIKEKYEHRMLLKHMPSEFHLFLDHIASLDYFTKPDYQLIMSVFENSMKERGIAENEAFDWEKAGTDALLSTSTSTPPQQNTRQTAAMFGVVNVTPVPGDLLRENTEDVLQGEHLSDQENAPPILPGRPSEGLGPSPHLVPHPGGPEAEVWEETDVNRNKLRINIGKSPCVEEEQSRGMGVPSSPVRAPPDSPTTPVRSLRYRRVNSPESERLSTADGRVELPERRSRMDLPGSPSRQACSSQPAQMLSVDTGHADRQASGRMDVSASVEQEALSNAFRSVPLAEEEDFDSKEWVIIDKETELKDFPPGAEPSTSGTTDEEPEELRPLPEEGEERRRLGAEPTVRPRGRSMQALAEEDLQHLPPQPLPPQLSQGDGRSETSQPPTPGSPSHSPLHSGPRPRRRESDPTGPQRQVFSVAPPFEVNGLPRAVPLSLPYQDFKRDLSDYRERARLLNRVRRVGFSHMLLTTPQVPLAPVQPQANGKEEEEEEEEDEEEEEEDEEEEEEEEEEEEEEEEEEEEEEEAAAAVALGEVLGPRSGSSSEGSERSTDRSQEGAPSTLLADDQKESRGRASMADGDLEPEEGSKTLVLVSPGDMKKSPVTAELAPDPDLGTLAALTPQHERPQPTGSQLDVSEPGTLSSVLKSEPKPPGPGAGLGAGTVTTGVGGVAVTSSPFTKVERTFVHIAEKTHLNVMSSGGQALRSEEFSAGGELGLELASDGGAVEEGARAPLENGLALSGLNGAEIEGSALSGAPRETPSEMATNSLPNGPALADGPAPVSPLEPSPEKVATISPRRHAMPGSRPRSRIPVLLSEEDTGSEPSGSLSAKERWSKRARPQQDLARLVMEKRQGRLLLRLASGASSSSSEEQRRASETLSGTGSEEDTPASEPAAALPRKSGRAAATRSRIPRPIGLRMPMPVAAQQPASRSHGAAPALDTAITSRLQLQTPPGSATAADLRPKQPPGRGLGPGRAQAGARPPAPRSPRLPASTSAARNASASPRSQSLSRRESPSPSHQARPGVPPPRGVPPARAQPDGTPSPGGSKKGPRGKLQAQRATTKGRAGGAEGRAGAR
UniProt Q5TCY1, 13-320 limits assumed: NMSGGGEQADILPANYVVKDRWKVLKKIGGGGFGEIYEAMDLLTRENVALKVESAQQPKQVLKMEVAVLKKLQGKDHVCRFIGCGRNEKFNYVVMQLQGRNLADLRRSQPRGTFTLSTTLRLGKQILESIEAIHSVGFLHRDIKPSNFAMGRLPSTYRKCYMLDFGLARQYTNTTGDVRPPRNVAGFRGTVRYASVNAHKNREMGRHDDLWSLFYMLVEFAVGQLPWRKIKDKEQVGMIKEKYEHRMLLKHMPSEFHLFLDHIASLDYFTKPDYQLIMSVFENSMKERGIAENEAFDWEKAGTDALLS
UniProt Q6IQ55, whole entry: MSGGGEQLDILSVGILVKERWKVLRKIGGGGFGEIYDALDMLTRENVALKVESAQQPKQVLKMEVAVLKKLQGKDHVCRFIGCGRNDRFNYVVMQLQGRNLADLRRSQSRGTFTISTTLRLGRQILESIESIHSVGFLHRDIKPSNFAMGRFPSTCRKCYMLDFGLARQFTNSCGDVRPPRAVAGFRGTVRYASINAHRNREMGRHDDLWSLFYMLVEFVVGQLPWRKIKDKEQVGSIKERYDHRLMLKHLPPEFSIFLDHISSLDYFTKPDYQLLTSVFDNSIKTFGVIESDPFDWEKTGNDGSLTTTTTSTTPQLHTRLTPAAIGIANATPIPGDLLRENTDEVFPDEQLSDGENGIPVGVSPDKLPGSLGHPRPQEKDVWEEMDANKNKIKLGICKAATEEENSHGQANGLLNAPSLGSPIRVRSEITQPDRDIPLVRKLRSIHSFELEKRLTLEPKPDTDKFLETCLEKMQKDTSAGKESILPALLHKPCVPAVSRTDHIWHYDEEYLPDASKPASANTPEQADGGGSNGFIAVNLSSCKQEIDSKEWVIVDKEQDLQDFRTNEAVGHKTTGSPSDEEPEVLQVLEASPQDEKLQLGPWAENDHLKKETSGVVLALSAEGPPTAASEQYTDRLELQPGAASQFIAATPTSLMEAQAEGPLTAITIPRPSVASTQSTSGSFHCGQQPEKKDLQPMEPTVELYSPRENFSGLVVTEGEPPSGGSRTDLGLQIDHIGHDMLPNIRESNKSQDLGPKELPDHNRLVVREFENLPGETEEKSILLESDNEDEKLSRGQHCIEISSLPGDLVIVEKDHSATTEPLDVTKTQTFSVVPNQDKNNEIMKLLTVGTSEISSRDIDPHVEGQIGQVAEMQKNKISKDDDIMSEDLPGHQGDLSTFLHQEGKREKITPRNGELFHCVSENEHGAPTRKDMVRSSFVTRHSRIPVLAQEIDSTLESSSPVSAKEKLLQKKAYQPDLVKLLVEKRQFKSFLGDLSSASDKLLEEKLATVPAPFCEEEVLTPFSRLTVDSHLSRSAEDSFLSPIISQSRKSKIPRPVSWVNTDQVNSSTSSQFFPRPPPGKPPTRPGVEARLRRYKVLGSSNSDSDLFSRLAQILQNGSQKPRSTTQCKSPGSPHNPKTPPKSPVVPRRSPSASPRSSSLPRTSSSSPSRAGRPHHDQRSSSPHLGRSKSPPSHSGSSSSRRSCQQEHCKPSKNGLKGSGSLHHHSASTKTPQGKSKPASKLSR

What was measured:
HIPK1 = HIPK1 (Homo sapiens, UniProt Q86Z02); assay: Eurofins enzymatic radiometric kinase assay; assay type: biochemical; conditions: ATP at Km, duplicate
MAP4K5 [1] = molecular target: T1, MAP4K5 (Homo sapiens, UniProt Q9Y4K4); assay: Eurofins enzymatic radiometric kinase assay; assay type: biochemical; conditions: ATP at Km, duplicate
MARK3 = MARK3 (Homo sapiens, UniProt P27448); assay: Eurofins enzymatic radiometric kinase assay; assay type: biochemical; conditions: ATP at Km, duplicate
MARK4 = MARK4 (Homo sapiens, UniProt Q96L34); assay: Eurofins enzymatic radiometric kinase assay; assay type: biochemical; conditions: ATP at Km, duplicate
PAK3 = PAK3 (Homo sapiens, UniProt O75914); assay: Eurofins enzymatic radiometric kinase assay; assay type: biochemical; conditions: ATP at Km, duplicate
PAK4 = PAK4 (Homo sapiens, UniProt O96013); assay: Eurofins enzymatic radiometric kinase assay; assay type: biochemical; conditions: ATP at Km, duplicate
PAK5 = PAK5 (Homo sapiens, UniProt Q9P286); assay: Eurofins enzymatic radiometric kinase assay; assay type: biochemical; conditions: ATP at Km, duplicate
PAK6 = PAK6 (Homo sapiens, UniProt Q9NQU5); assay: Eurofins enzymatic radiometric kinase assay; assay type: biochemical; conditions: ATP at Km, duplicate
TAOK1 [2] = molecular target: T2, TAOK1 (Homo sapiens, UniProt Q7L7X3); assay: Eurofins enzymatic radiometric kinase assay; assay type: biochemical; conditions: ATP at Km; for TAOK1 PoC at 1 μM: duplicate
TAOK2 = TAOK2 (Homo sapiens, UniProt Q9UL54); assay: Eurofins enzymatic radiometric kinase assay; assay type: biochemical; conditions: ATP at Km; for TAOK2 PoC at 1 μM: duplicate
TAOK3 = TAOK3 (Homo sapiens, UniProt Q9H2K8); assay: Eurofins enzymatic radiometric kinase assay; assay type: biochemical; conditions: ATP at Km, duplicate
TSSK1 = TSSK1 (Homo sapiens, UniProt Q9BXA7); assay: Eurofins enzymatic radiometric kinase assay; assay type: biochemical; conditions: ATP at Km, duplicate
TSSK2 = TSSK2 (Homo sapiens, UniProt Q96PF2); assay: Eurofins enzymatic radiometric kinase assay; assay type: biochemical; conditions: ATP at Km, duplicate
TSSK3 = TSSK3 (Homo sapiens, UniProt Q96PN8); assay: Eurofins enzymatic radiometric kinase assay; assay type: biochemical; conditions: ATP at Km; for TSSK3 PoC at 1 μM: duplicate
TSSK4 = TSSK4 (Homo sapiens, UniProt Q6SA08); assay: Eurofins enzymatic radiometric kinase assay; assay type: biochemical; conditions: ATP at Km, duplicate
TTBK1 = TTBK1 (Homo sapiens, UniProt Q5TCY1); assay: Eurofins enzymatic radiometric kinase assay; assay type: biochemical; conditions: ATP at Km; for TTBK1 PoC: 1 μM, duplicate, lower = greater inhibition
TTBK2 = TTBK2 (Homo sapiens, UniProt Q6IQ55); assay: Eurofins enzymatic radiometric kinase assay; assay type: biochemical; conditions: ATP at Km; for TTBK2 PoC: 1 μM, duplicate, lower = greater inhibition
TTBK1 kinase domain = TTBK1 kinase domain (Homo sapiens, UniProt Q5TCY1); assay: Thermal shift assay; assay type: binding; conditions: for ΔTm TTBK1: kinase domain 2 µM, inhibitor 10 µM
[3] = test system: phospho-TDP-43 (Ser409/410); assay: Western blot of SH-SY5Y cells, phospho-TDP-43
SH-SY5Y cells = assay: Toxicity in SH-SY5Y cells; assay type: cell-based; conditions: 24 h treatment with 5 μM
Experimental: Exposure of SH-SY5Y cells to ethacrynic acid (EA) is reported to induce TDP-43 phosphorylation by causing cell death via glutathione depletion[23],[32]. Following a published protocol, we treated SH-SY5Y cells with 5 μM of either 9 or 10 one hour prior to the addition of 40 μM EA[23]. Cells were harvested after 24 h. […] One potential explanation is that our phospho-TDP-43 signal at baseline is robust in control cells. Consistent with the 24 h treatment without EA addition (Fig. S4), total TDP-43 was decreased (~ 44%) by 5 μM of 10, but phospho-TDP-43 was not affected. Limited toxicity was observed after 24 h treatment with 5 μM of 9 or 10. Based on the appearance of the cells and experiments carried out in parallel using our PIKfyve probe, we propose that at 5 μM these compounds are potently inhibiting PIKfyve[33]. As shown in Table S2 and Fig. S1, both compounds bind with high affinity to PIKfyve. PIKfyve inhibition leads to disruption of lysosome function that drives cell death. LysoTracker staining overlaps with the enlarged vesicles observed at the 5 μM dose (Fig. S4), which is consistent with PIKfyve inhibitor treatment[33],[34].
SH-SY5Y cells were exposed to compound for the time period indicated, with or without co-treatment with ethacrynic acid (EA), in Figs. 3/S4/S5 before harvesting lysates. […] Lysates were collected in RIPA, sonicated, and quantified using BCA assay. […]

CHEK2 = CHEK2 (Homo sapiens, UniProt O96017); assay: DiscoverX scanMAX binding assay; conditions: 1 μM
CSNK1E = CSNK1E (Homo sapiens, UniProt P49674); assay: DiscoverX scanMAX binding assay; conditions: 1 μM
MAP4K5 [4] = molecular target: T1, MAP4K5; assay: DiscoverX scanMAX binding assay; conditions: 1 μM
MEK4 = MEK4 (Homo sapiens, UniProt P45985); assay: DiscoverX scanMAX binding assay; conditions: 1 μM
PIKfyve = PIKfyve (Homo sapiens, UniProt Q9Y2I7); assay: DiscoverX scanMAX binding assay; conditions: 1 μM
PIP5K1C = PIP5K1C (Homo sapiens, UniProt O60331); assay: DiscoverX scanMAX binding assay; conditions: 1 μM
RIPK5 = RIPK5 (Homo sapiens, UniProt Q6XUX3); assay: DiscoverX scanMAX binding assay; conditions: 1 μM
TAOK1 [5] = molecular target: T2, TAOK1; assay: DiscoverX scanMAX binding assay; conditions: 1 μM
YSK4 = YSK4 (Homo sapiens, UniProt Q56UN5); assay: DiscoverX scanMAX binding assay; conditions: 1 μM

| SMILES | HIPK1 PoC at 1 μM (HIPK1) | MAP4K5 PoC at 1 μM (MAP4K5 [1]) | MARK3 PoC at 1 μM (MARK3) | MARK4 PoC at 1 μM (MARK4) | PAK3 PoC at 1 μM (PAK3) | PAK4 PoC at 1 μM (PAK4) | PAK5 PoC at 1 μM (PAK5) | PAK6 PoC at 1 μM (PAK6) | TAOK1 PoC at 1 μM (TAOK1 [2]) | TAOK2 PoC at 1 μM (TAOK2) | TAOK3 PoC at 1 μM (TAOK3) | TSSK1 PoC at 1 μM (TSSK1) | TSSK2 PoC at 1 μM (TSSK2) | TSSK3 PoC at 1 μM (TSSK3) | TSSK4 PoC at 1 μM (TSSK4) | TTBK1 PoC (TTBK1) | TTBK2 PoC (TTBK2) | ΔTm TTBK1 (TTBK1 kinase domain) | decrease in phospho-TDP-43 expression ([3]; 48 h treatment, up to 5 μM) | toxicity (SH-SY5Y cells) | other results |
| --- | --- | --- | --- | --- | --- | --- | --- | --- | --- | --- | --- | --- | --- | --- | --- | --- | --- | --- | --- | --- | --- |
| CCC(C)(O)C#Cc1ccc2[nH]c3c(c2c1)-c1nc(N)ncc1CCC3 (racemic) | 89 PoC | 1 PoC | 48 PoC | 39 PoC | 117 PoC | 12 PoC | 17 PoC | 14 PoC | 9 PoC | 14 PoC | 18 PoC | 16 PoC | 58 PoC | -3 PoC | 88 PoC | 37 PoC | 18 PoC | 8.1 °C | ~ 45% | Limited toxicity | effect on phospho-TDP-43 ([3]; 5 μM one hour prior to 40 μM ethacrynic acid, harvested after 24 h): not affected; CHEK2 (CHK2) % control at 1000nM / DiscoverX PoC value (CHEK2): 4.4 % control; CSNK1E % control at 1000nM / DiscoverX PoC value (CSNK1E): 8.9 % control; MAP4K5 % control at 1000nM / DiscoverX PoC value (MAP4K5 [4]): 9.6 % control; MEK4 (MKK4) % control at 1000nM / DiscoverX PoC value (MEK4): 5.5 % control; PIKFYVE % control at 1000nM / DiscoverX PoC value (PIKfyve): 0 % control; PIP5K1C % control at 1000nM / DiscoverX PoC value (PIP5K1C): 0 % control; RIPK5 % control at 1000nM / DiscoverX PoC value (RIPK5): 2.4 % control; TAOK1 % control at 1000nM / DiscoverX PoC value (TAOK1 [5]): 3.1 % control; YSK4 % control at 1000nM / DiscoverX PoC value (YSK4): 0 % control |
| CCC(O)(C#Cc1ccc2[nH]c3c(c2c1)-c1nc(N)ncc1CCC3)CC | 124 PoC | 2 PoC | 77 PoC | 60 PoC | 103 PoC | 36 PoC | 60 PoC | 40 PoC | 36 PoC | 31 PoC | 43 PoC | 38 PoC | 76 PoC | 5 PoC | 102 PoC | 41 PoC | 17 PoC | 8.5 °C | did not change | Limited toxicity | IC50 (TAOK1 [2]; read-out: TAOK1 IC50, Enzymatic, Eurofins): 780 nM; IC50 (TAOK2; read-out: TAOK2 IC50, Enzymatic, Eurofins): 860 nM; IC50 (TSSK3; read-out: TSSK3 IC50, Enzymatic, Eurofins): 240 nM; IC50 (TTBK1; read-out: TTBK1 enzymatic IC50, dose–response 9-pt curve): 380 nM and < 600 nM and 384 nM; IC50 (TTBK2; read-out: TTBK2 enzymatic IC50, dose–response 9-pt curve): 180 nM and < 300 nM and 175 nM; melting temperature (Tm) shift higher versus AMG28 (TTBK1 kinase domain; TTBK1/2 thermal shift): 1.2–1.8 °C; change in phospho-TDP-43 expression ([3]; 24 h treatment, up to 5 μM): no changes; decrease in phospho-TDP-43 expression ([3]; 72 h treatment, 5 μM, one replicate, data not shown): 13–16%; CHEK2 (CHK2) % control at 1000nM / DiscoverX PoC value (CHEK2): 22 % control; CSNK1E % control at 1000nM / DiscoverX PoC value (CSNK1E): 13 % control; MAP4K5 % control at 1000nM / DiscoverX PoC value (MAP4K5 [4]): 21 % control; MEK4 (MKK4) % control at 1000nM / DiscoverX PoC value (MEK4): 3.5 % control; PIKFYVE % control at 1000nM / DiscoverX PoC value (PIKfyve): 0 % control; PIP5K1C % control at 1000nM / DiscoverX PoC value (PIP5K1C): 0 % control; RIPK5 % control at 1000nM / DiscoverX PoC value (RIPK5): 4.1 % control; TAOK1 % control at 1000nM / DiscoverX PoC value (TAOK1 [5]): 24 % control; YSK4 % control at 1000nM / DiscoverX PoC value (YSK4): 1.1 % control |
